How the values were obtained:
μ receptor = μ receptor (Homo sapiens, UniProt P35372); type: biochemical
δ receptor = target: T1, δ receptor (Homo sapiens, UniProt P41143); type: biochemical
T1 construct: expressed in transfected cells; host or cells: CHO cells

Amino acid sequences for entries named in this document (tags omitted).
UniProt P35372, whole entry: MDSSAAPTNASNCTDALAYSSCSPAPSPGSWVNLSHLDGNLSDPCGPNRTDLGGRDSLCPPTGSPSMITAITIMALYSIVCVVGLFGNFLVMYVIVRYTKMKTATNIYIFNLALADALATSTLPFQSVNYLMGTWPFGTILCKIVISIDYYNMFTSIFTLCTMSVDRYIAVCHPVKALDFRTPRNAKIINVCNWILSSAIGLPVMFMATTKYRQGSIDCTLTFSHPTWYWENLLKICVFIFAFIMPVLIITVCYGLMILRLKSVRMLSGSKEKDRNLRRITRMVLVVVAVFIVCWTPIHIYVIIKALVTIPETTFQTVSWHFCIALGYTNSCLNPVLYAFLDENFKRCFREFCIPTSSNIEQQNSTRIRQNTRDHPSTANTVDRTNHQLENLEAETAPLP

(−)SKF 10,047
EC50 (μ receptor): > 10 µM
EC50 (δ receptor): 9.4 ± 2.3 nM
δ % Stim (δ receptor): 70 ± 9%

Reference: patent publication US7629355B2 (priority 2003, dated 2009)
